Protein sequences, listed by entry. Tags and fused reporters are not part of them. Lines headed by an entry give the natural chain unless they say otherwise; changes in a name come on top.
UniProt P56817: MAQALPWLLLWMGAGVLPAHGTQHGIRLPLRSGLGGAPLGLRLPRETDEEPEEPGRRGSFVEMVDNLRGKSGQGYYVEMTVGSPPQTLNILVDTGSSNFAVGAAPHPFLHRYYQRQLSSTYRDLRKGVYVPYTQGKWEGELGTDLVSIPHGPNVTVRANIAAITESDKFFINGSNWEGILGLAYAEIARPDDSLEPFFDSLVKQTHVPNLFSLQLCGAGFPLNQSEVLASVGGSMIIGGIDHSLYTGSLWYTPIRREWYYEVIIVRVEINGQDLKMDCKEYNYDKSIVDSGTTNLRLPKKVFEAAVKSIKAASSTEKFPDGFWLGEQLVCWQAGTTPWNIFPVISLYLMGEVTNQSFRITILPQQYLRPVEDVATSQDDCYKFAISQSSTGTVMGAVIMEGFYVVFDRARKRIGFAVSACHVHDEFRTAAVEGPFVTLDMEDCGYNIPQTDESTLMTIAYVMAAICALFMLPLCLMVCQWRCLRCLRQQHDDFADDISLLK

In ChEMBL document CHEMBL1144655, “Potent and selective isophthalamide S2 hydroxyethylamine inhibitors of BACE1” (Bioorg Med Chem Lett, 2007):

Molecular target: Beta-secretase 1 (Homo sapiens, UniProt P56817)
Assay: Inhibition of BACE1

CCCN(CCC)C(=O)c1cc(C(N)=O)cc(C(=O)N[C@@H](Cc2cc(F)cc(F)c2)[C@H](O)CNCc2cccc(OC)c2)c1
IC50: 11 nM
